Data as given in patent US8969323B2, “Priming solutions for cardiopulmonary bypass” (XVIVO Perfusion AB, priority 2010, dated 2015).

Test: Oncotic pressure of Dextran 40 solutions measured against a 10 kDa cut-off membrane
Format: physicochemical
Description: For the purpose of this application, a functional hyperoncotic pressure is an oncotic pressure such that when a solution with the functional hyperoncotic pressure is mixed with blood in the patient, the oncotic pressure in the blood is maintained within normal patient values. The reason for using this definition is because the effective oncotic pressure provided by a dextran solution mixed with blood in a patient cannot simply be calculated using van't Hoff's law. When oncotic pressure is measured in Dextran 40 solutions against a 10 kDa cut-off membrane, 35 g/l corresponds approximately to 37 mmHg or 1.3 times the oncotic pressure of plasma, 45 g/l corresponds approximately to 48 mmHg or about 1.7 times the oncotic pressure of plasma and 55 g/l corresponds approximately to 63 mmHg or about 2.1 times the oncotic pressure of plasma. However, the exact numbers will vary between measurement methods. The in vivo situation also immediately changes the functional oncotic pressure.

With Dextran 40 the oncotic pressure (Dextran 40 solution 35 g/l) was ~37 mmHg, the “oncotic pressure, times the oncotic pressure of plasma” value (“oncotic pressure … of plasma” below) (Dextran 40 solution 35 g/l) was ~1.3 times and the oncotic pressure (Dextran 40 solution 45 g/l) was ~48 mmHg. The “oncotic pressure … of plasma” value (Dextran 40 solution 45 g/l) was “about 1.7 times”, the oncotic pressure (Dextran 40 solution 55 g/l) was ~63 mmHg and the “oncotic pressure … of plasma” value (Dextran 40 solution 55 g/l) was “about 2.1 times”.
